Test results taken from ChEMBL document CHEMBL2203232, “Design and discovery of new (3S,5R)-5-[4-(2-chlorophenyl)-2,2-dimethyl-5-oxopiperazin-1-yl]piperidine-3-carboxamides as potent renin inhibitors” (Bioorg Med Chem Lett, 2012).

Protein sequences, listed by entry. Tags and fused reporters are not part of them. Lines headed by an entry give the natural chain unless they say otherwise; changes in a name come on top.
UniProt P00797: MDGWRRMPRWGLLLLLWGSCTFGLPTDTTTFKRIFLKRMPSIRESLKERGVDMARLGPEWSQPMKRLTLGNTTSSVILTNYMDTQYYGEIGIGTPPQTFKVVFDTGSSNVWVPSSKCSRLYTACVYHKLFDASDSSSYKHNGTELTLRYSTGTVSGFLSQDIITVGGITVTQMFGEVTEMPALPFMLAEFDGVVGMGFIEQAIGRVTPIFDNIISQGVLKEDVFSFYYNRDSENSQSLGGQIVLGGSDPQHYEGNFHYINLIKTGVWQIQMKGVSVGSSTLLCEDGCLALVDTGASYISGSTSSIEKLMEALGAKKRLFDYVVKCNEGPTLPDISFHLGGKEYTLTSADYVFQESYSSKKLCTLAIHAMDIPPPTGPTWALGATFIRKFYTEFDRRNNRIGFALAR

Target: Renin (Homo sapiens, UniProt P00797)
Assay: Inhibition of recombinant human renin using Arg-Glu(EDANS)-Ile-His-Pro-Phe-His-Leu-Val-Ile-His-Thr-Lys(DABCYL)-Arg as substrate incubated for 10 mins prior to substrate addition measured after 90 mins by fluorimetric analysis

`CC(C)CCNC(=O)[C@@H]1CNC[C@H](N2CC(=O)N(c3ccccc3Cl)CC2(C)C)C1` showed an IC50 of 7.7 nM.
